From ChEMBL document CHEMBL5244204, “Drug discovery approaches targeting 5-lipoxygenase-activating protein (FLAP) for inhibition of cellular leukotriene biosynthesis” (Eur J Med Chem, 2018) come the findings set out here.

By UniProt entry, the sequences of proteins in these tests, tags left out. Where a name states a change or a piece, a line headed by the entry shows the natural chain unless it says otherwise.
UniProt P20292: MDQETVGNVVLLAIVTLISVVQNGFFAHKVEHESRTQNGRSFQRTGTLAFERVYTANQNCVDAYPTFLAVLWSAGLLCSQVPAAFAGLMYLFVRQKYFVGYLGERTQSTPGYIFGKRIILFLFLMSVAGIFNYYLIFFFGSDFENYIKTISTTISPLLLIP

For assay [1], the target named is T1, Arachidonate 5-lipoxygenase-activating protein (Homo sapiens, UniProt P20292). Put plainly: Inhibition of N-terminal His6-tagged human FLAP expressed in Sf9 insect cells assessed as inhibition constant incubated for 2 hr by HTRF assay. (TR-FRET usually uses a lanthanide donor and a delayed reading to cut background.)
Assay [2] deals with T1, Arachidonate 5-lipoxygenase-activating protein. Put plainly: Inhibition of FLAP in human whole blood assessed as reduction of LTB4 formation preincubated with enzyme for 15 mins followed by calcium ionophore A23187 addition and measured after 30 mins. Type of assay: tissue-based.
Assay [3] has the same target. Put plainly: Inhibition of FLAP in human whole blood assessed as reduction in LTB4 level preincubated for 15 mins followed by calcium ionophore A23187 addition and measured after 30 min. Type of assay: tissue-based.

In general, Ki refers to a measure of affinity in units of concentration, obtained from inhibition or displacement. What is called IC50 is the concentration that inhibits the measured activity by half. In the case of `Cc1cnc(COc2ccc3nc([C@H]4CCCC[C@H]4C(=O)O)n(Cc4ccc(N5CCC(C)CC5)cc4F)c3c2)c(F)c1`, the Ki in assay [1] came to 1.1 nM. Further, the IC50 in assay [2] was 29 nM. Regarding `C[C@H](CO)NS(=O)(=O)c1ccccc1-c1ccc(-c2cnc(N)cn2)c(F)c1`, the IC50 in assay [3] was 38 nM.
